Screens deposited in PubChem by Broad Institute.
HIV Env fusion: inhibitors of HIV-1 Env-driven cell-cell fusion, primary screen, HeLa-JRFL effector, CEM21 target cells, luciferase. inhibition, % at 12.3 µM. 1.1% of 360,000 active;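 active = mean replicate inhibition score of at least 50 and every replicate individually at or above 50; inconclusive = only one of the two criteria met; inactive = mean below 50 and not all replicates reaching 50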;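 note: 0% = plate neutral controls and 100% = maraviroc near 300 nM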
miR122 inh: miR-122 Renilla sensor signal increase in Huh7, primary screen, miR-122 inhibitor project, cell-based, single point, plate reader. AID 602342, 2012. Huh7 miR-122 Renilla luciferase sensor, 48 h; neutral wells = 0, positive control = 100. 0.3% of 340,000 active. activation (reporter increase), % at 12.5 µM;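 active = mean replicate activation score at least 90 and every replicate individually at or above 90; inconclusive = only one of the two criteria met; inactive = neither criterion met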;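 note: higher luciferase means less miR-122 activity so hits act as miR-122 inhibitors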
PGC1a acetyl inh: inhibitors of PGC1a acetylation signal, primary screen, cell-based, U2OS, AlphaScreen, inhibitor mode | AlphaScreen anti-acetyl-lysine; with virally co-expressed GCN5 acetyltransferase | inhibition, % at 15.6 µM | 0.17% of 350,000 active;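 active = every replicate shows inhibition of at least 40%; inconclusive = mean inhibition at least 40% but some replicate below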;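 note: 0% = neutral control wells and 100% = positive control wells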
FN deposition inh: inhibitors of fibronectin matrix deposition, primary screen, AH1F cells, Alexa488-fibronectin fluorescence, plate reader; AH1F fibroblasts, overnight; inhibition, % at 12.6 µM; 0.086% of 350,000 active; AID 743247, 2014;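 active = mean inhibition across replicates of 30% or more, regardless of how many single replicates reach that level; inconclusive = mean under 30% yet at least half of replicates reach 30%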;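 note: positive control wells lacked labelled fibronectin entirely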
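Material: AH1F fibroblast monolayer depositing Alexa488-labelled fibronectin into matrix | Input: 10000 AH1F cells/well | Medium: DMEM plus 2% serum, read in PBS | Reagent: Alexa488-fibronectin, 24 nM final in well | Compound dosing: One dose per compound, pinned | Schedule: 1 h adhesion, overnight exposure | Measured by: Fluorescence at 485 nm excitation, 525 nm emission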
Cneo AK release: Cryptococcus neoformans cell lysis inducers, primary screen, AK release luminescence, single concentration | AID 651654, 2012 | 0.2% of 360,000 active | C. neoformans lysis, adenylate kinase release luminescence, 4 h; normalised: neutral wells 0, clomiphene wells 100 | lysis activity, % at 15 µM;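 active = mean lysis activity across replicates of at least 80%, whatever share of replicates individually reach that level; inactive = mean lysis activity below 80%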
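Schedule: static 4 h at 37 °C with compound, 1 h detection; system: C. neoformans cells; benchmarks: Clomiphene as positive control; buffer or medium: fresh YPD medium; measure: luminescence rise reflecting yeast cell lysis; measured by: luminescent adenylate kinase detection reagent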
Yeast UUG start: yeast start codon fidelity modulation | S. cerevisiae UUG-firefly luciferase reporter, luminescence/redox ratio | activity score, % at 18.7 µM | 350,000 tested, 0.13% active;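 active = replicate mean at a twofold rise or more, about +100% in these data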;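 also: firefly luciferase made from a UUG start codon reports start codon fidelity; reporter light over untreated wells divided by growth signal over untreated wells; some hits fall short of that in this replicate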
An asterisk follows results filed as active; u = inconclusive; x = no result given; [ ] = another dose, or the depositor's remark. The list is not random: actives were taken first. Their share in the collection is about 1.5%.

The first 4 entries, ahead of the listing:
SMILES | HIV Env fusion | miR122 inh | PGC1a acetyl inh | FN deposition inh | Cneo AK release | Yeast UUG start
COc1ccc(S(=O)(=O)N2CCCCC2)cc1NC(=O)CN(Cc1ccco1)Cc1ccco1 | 76.2* | 5.0 | -9.5 | x | -0.7 | -10.3
COc1ccc(S(=O)(=O)N2CCCCC2)cc1NC(=O)CCCOc1ccccc1 | -2.8 | -8.6 | -2.4 | 2.8 | -0.4 | 9.4
CN1C(=O)c2cccc3c(S(=O)(=O)N(C)C)ccc1c23 | 2.3 | x | x | 3.1 | 118.0* | -16.7
Cc1c(NC(=O)C(C)SC(=S)N2CCCC2)c(=O)n(-c2ccccc2)n1C (stereo not given) | x | x | x | -5.0 | -1.7 | 3.7

The list itself, from the start:
SMILES | HIV Env fusion | miR122 inh | PGC1a acetyl inh | FN deposition inh | Cneo AK release | Yeast UUG start
COc1ccc(S(=O)(=O)N2CCCCC2)cc1NC(=O)CN(Cc1ccco1)Cc1ccco1 | 76.2* | 5.0 | -9.5 | x | -0.7 | -10.3
COc1ccc(S(=O)(=O)N2CCCCC2)cc1NC(=O)CCCOc1ccccc1 | -2.8 | -8.6 | -2.4 | 2.8 | -0.4 | 9.4
CN1C(=O)c2cccc3c(S(=O)(=O)N(C)C)ccc1c23 | 2.3 | x | x | 3.1 | 118.0* | -16.7
Cc1c(NC(=O)C(C)SC(=S)N2CCCC2)c(=O)n(-c2ccccc2)n1C (stereo not given) | x | x | x | -5.0 | -1.7 | 3.7
Fc1ccc(-c2ccc3c(n2)CCCN3Cc2ccccn2)cc1 | -49.8 | x | x | 5.2 | x | x
c1ccc(-c2ccc3c(n2)CCCN3Cc2ccccn2)cc1 | 61.5* | x | x | 5.8 | x | x
O=S(=O)(c1cccc(F)c1)N1[C@@H]2CNC[C@H]1C2c1ccc(-c2ccncc2)cc1 (stereo not given in full) | x | x | -12.0 | -5.4 | x | x
Cc1ccc(S(=O)(=O)N[C@@H]2C=C[C@@H](CC(=O)NCCN3CCCCC3)O[C@H]2CO)cc1 | -3.9[16.7 µM] | 5.4[16.7 µM] | -9.6 | x | 7.4 | x
Cc1ccc(S(=O)(=O)N[C@H]2C=C[C@@H](CC(=O)N3CCC(Cc4ccccc4)CC3)O[C@H]2CO)cc1 | 56.1*[16.7 µM] | -2.0[16.7 µM] | 12.0 | x | 84.9* | 26.1
COc1ccc(S(=O)(=O)N[C@H]2C=C[C@H](CC(=O)N3CCC(Cc4ccccc4)CC3)O[C@@H]2CO)cc1 | u | x | -14.6 | 1.2 | 89.3* | 8.3
Cc1ccc(S(=O)(=O)N[C@H]2C=C[C@@H](CC(=O)NCCN3CCCCC3)O[C@H]2CO)cc1 | -18.8[16.7 µM] | 7.5[16.7 µM] | 104.7* | x | 8.1 | x
COc1ccc(S(=O)(=O)N[C@@H]2C=C[C@H](CC(=O)N3CCC(Cc4ccccc4)CC3)O[C@H]2CO)cc1 | 11.2[16.7 µM] | x | -3.0 | 9.9 | 3.1 | -2.1
Cc1ccc(CCC(=O)Nc2ccc(Cl)cc2)o1 | -39.6 | -3.7 | 71.7* | 2.4 | -1.9 | -3.5
CCCCNc1cccc2c1S(=O)(=O)N(CCCC)CC(COCc1ccccc1)O2 (stereo not given) | 61.1* | 33.8 | -15.4 | -0.4 | -0.1 | -18.0
Cc1ccc(NC2=C(Cl)C(=O)c3ccccc3C2=O)cc1 | -22.0 | 1.1 | u | 6.7 | 2.9 | -24.7
CCN(CC)c1ccc(NC2=C(Cl)C(=O)c3ccccc3C2=O)cc1 | x | 12.1 | 68.0* | x | -7.1 | -25.9
N#C/C(=C/c1ccc(OCc2ccc(C(=O)O)cc2)c(Br)c1)c1cccc(F)c1 | 13.6 | -5.2 | 96.1* | 6.6 | x | x
Cc1ccc(N2CCN(S(=O)(=O)N3CCCCC3)CC2)c(C)c1 | -9.7 | x | x | 1.4 | x | x
CC(C)NC(=O)C1CCCN(S(=O)(=O)c2ccc(-n3cnnn3)cc2)C1 (stereo not given) | -31.8 | -4.9 | -26.4 | -11.6 | 2.0 | -18.9
O=C(Nc1ccccc1)c1nc[nH]c1C(=O)NCCCCCCNC(=O)c1[nH]cnc1C(=O)Nc1ccccc1 | 57.5* | 0.4 | 9.2 | 12.0 | 2.9 | 0.0
O=C(Nc1ccccc1N1CCN(C(=O)c2ccccc2)CC1)c1ccc(Br)o1 | 69.1* | 2.6 | 1.0 | x | 2.5 | -16.6
O=C(NC(=S)Nc1ccccc1N1CCN(C(=O)c2ccccc2)CC1)c1ccccc1F | 58.3* | x | x | x | 15.7 | -12.5
O=C(NC(=S)Nc1ccccc1N1CCCC1)c1cccs1 | -20.0 | x | 50.8* | -2.7 | 1.5 | -4.5
O=C(NC(=S)Nc1ccccc1N1CCCCC1)c1cccs1 | -18.6 | x | x | -4.7 | x | x
CN(C)C=Nc1nonc1N | x | -1.3 | 11.7 | x | -1.7 | -52.3
Cc1cc(CNC(=O)[C@H]2C[C@@H]2[C@H](NP(=O)(c2ccccc2)c2ccccc2)c2ccccc2)nn1C | 8.0 | x | x | 9.4 | x | x
O=C(O)C1CC=CCC1C(=O)NNS(=O)(=O)c1ccccc1 (stereo not given) | 3.0 | x | -1.1 | 2.1 | x | x
O=C(C(Cc1ccccc1)N1C(=O)c2ccccc2C1=O)N1c2ccccc2CCc2ccccc21 (stereo not given) | 65.6* | x | -31.3 | -2.4 | x | x
O=C1c2ccccc2C(=O)N1CC(=O)N1c2ccccc2CCc2ccccc21 | -34.3 | -2.4 | 6.0 | -2.2 | 2.1 | -7.8
C=CC[n+]1c(-c2ccc(OC)c(OC)c2)csc1NNC(=O)Nc1ccccc1 | 74.1* | -2.2 | -1.9 | 1.2 | 1.0 | -29.1
N#C[C@@H]1[C@H](c2ccccc2)[C@H](CO)N1C(=O)c1cccnc1 | 6.5[16.7 µM] | x | 5.0 | -4.1 | 1.0 | -9.7
COc1ccccc1NC(=O)/C=C1\NC(=O)CS1 | -1.6 | -2.3 | x | -4.7 | -0.8 | -4.1
COc1ccccc1NC(=O)/C=C1\SCC(=O)N1C | -3.5 | x | 93.4* | -4.0 | x | x
Cc1ccc(S(=O)(=O)N2CCCOC2CNC(=O)C(=O)NCCN2CCOCC2)cc1 (stereo not given) | 5.8 | -0.2 | x | -14.2 | 1.8 | -4.4
Cc1ccc(S(=O)(=O)N2CCCOC2CNC(=O)C(=O)NCCC2=CCCCC2)cc1 (stereo not given) | 59.8* | x | x | 8.4 | x | x
Cc1cc(CN2CCN(c3ncc(Cc4ccccc4)cn3)CC2)cc(C)c1O | 21.7 | x | x | 1.9 | x | x
CC(=O)c1ccc(NC(=O)C(C)N(C)CC(=O)Nc2ccc(N3CCOCC3)cc2)cc1 (stereo not given) | 9.2 | -1.1 | 7.2 | 10.7 | -0.4 | -4.2
CCOC(=O)/C=C1/SCC(=O)N1CC(=O)NC12CC3CC(CC(C3)C1)C2 | 57.3* | -2.5 | -23.6 | 0.9 | -0.9 | -11.3
COc1ccc(S(=O)(=O)Nc2ccc3c(c2)C(=O)N([C@H](C)CO)C[C@H](C)[C@H](CN(C)CC2CC2)OCCCC[C@H](C)O3)cc1 | -2.1[16.7 µM] | -0.3[16.7 µM] | -10.6 | x | 52.5 | 22.3
Cc1oc2ccc(O)cc2c1C(=O)c1ccc(Br)cc1 | -4.1 | x | x | 34.3* | x | x
Cc1oc2ccc(O)cc2c1C(=O)c1ccc(Cl)cc1 | 13.3 | 6.6 | x | -2.7 | -1.4 | -17.8
C[C@H](CO)N1C[C@H](C)[C@H](CN(C)C(=O)c2ccccc2F)Oc2ncc(C#Cc3ccncc3)cc2C1=O | 0.3[16.7 µM] | -15.0[16.7 µM] | 6.5 | -0.9 | -1.0 | 4.9
CCN1C(=O)CS/C1=N\S(=O)(=O)c1ccc(Cl)cc1 | 1.4 | -6.7 | 10.9 | 3.5 | 5.8 | -9.6
CCn1c(Cl)c(C=O)s/c1=N\S(=O)(=O)c1ccccc1 | -42.8 | -72.1 | 78.1* | 50.1* | -9.5 | -4.5
O=C(CNC1CCCCCC1)Nc1ccccc1N1CCCCC1 | u | 7.1 | -8.7 | x | -7.5 | 0.5
O=C(CNCC1CCCCC1)Nc1ccccc1N1CCCCC1 | 74.7* | 20.3 | -13.5 | -1.2 | 1.2 | -12.2

Entries of single compounds, looked up by structure. Values in the order: HIV Env fusion, miR122 inh, PGC1a acetyl inh, FN deposition inh, Cneo AK release, Yeast UUG start
COc1ccc(S(=O)(=O)N[C@@H]2C=C[C@H](CC(=O)N3CCC(Cc4ccccc4)CC3)O[C@H]2CO)cc1 is entered as 11.2[16.7 µM], x, -3.0, 9.9, 3.1, -2.1
O=C1c2ccccc2C(=O)N1CC(=O)N1c2ccccc2CCc2ccccc21 is entered as -34.3, -2.4, 6.0, -2.2, 2.1, -7.8
